The source of these data is patent publication EP4840855A1, “SULFONAMIDE DERIVATIVE, PREPARATION METHOD THEREFOR AND USE THEREOF” (dated 2026).

The chains behind the UniProt entries cited, without tags or fusion partners.
UniProt P17812, whole entry: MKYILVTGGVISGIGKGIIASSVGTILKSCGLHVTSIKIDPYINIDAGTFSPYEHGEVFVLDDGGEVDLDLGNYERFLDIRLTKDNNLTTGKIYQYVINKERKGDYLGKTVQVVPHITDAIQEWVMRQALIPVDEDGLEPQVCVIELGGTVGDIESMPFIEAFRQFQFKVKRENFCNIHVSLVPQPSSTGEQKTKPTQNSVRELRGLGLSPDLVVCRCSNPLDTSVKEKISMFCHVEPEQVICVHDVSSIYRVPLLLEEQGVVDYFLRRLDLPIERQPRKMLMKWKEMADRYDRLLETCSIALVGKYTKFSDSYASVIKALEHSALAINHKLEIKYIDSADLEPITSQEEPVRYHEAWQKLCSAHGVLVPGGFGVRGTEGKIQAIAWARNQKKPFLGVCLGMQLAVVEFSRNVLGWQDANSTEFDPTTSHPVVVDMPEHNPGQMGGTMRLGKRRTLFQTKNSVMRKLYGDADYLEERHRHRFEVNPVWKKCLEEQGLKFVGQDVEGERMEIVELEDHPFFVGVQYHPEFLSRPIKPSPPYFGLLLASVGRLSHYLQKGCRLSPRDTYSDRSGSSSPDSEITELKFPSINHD
UniProt Q9NRF8, whole entry: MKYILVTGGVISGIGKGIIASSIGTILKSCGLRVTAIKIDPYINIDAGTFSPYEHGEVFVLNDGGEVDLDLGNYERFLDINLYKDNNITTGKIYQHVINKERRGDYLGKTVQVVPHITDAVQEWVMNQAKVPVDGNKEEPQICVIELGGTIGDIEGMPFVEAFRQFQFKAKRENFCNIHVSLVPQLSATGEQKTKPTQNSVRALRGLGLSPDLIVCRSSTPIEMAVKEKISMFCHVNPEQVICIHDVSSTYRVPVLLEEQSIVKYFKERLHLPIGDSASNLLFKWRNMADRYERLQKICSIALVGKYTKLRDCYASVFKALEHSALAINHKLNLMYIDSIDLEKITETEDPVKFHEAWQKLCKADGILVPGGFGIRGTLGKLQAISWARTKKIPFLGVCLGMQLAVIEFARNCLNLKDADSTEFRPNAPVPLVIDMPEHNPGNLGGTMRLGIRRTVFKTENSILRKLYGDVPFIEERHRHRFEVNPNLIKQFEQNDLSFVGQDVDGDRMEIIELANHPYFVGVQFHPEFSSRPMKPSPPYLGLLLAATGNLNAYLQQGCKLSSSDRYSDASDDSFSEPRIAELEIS

In data set [1] the target is human cytidine triphosphate synthase 1 (hCTPS1) (Homo sapiens, UniProt P17812). In words: Inhibition on hCTPS1 enzyme activity (ADP-Glo Kinase Assay). The settings on record: 40 nM hCTPS1, 120 µM ATP, 160 µM UTP, 60 µM GTP, 100 µM L-Glutamine, 120 minutes. The procedure:
The following method was used to determine the degree of inhibition on human cytidine triphosphate synthase 1 (hCTPS1) enzyme activity by the compounds of the present disclosure in vitro. ADP-Glo™ Kinase Assay kit (catalog number V9102) from Promega was used in this method. The kit's manual may be referred for a detailed experimental procedure.
The experimental procedure was briefly described as follows: The reaction was performed in a buffer containing 50 mM 4-hydroxyethylpiperazineethanesulfonic acid (HEPES), 10 mM magnesium chloride, 5 mM potassium chloride, 0.01% Pluronic F127, and 4 mM dithiothreitol in a 384-well plate. First, 100 nL of gradient-diluted compound was transferred to the 384-well plate via a nanoliter acoustic liquid transfer system (manufacturer: Labcyte; catalog number: Echo 655), and 2.5 µL of buffer containing hCTPS1 was added, followed by incubation in a 25°C incubator for 10 minutes. Then 2.5 µL of buffer containing ATP and UTP was added, followed by incubation in a 25°C incubator for 10 minutes. Finally, 5 µL of buffer containing GTP and L-glutamine (L-Gln) was added to initiate the reaction. The final reaction system was: 40 nM hCTPS1, 120 µM ATP, 160 µM UTP, 60 µM GTP, 100 µM L-Glutamine, 1% DMSO, with a total assay volume of 10 µL. The reaction was performed for 120 minutes, then 10 µL of ADP-Glo Reagent was added, followed by incubation for 1 hour. Then 20 µL of Kinase Detection Reagent was added, and after 1 hour, the chemiluminescence value was recorded on a Microbeta microplate reader (manufacturer: PerkinElmer; catalog number: Envision). The percentage inhibition rates of the compounds at each concentration were calculated by comparing the chemiluminescence intensity ratio with a control group (0.1% DMSO). The IC50 value of the compounds were obtained by nonlinear regression analysis of compound concentration logarithm-inhibition rate using GraphPad Prism 5 software, as shown in Table 2. Table 2 IC50 data for inhibition on hCTPS1 enzyme activity by the compounds of the present disclosure

Data set [2] in a line: Pharmacokinetic testing in mice (plasma concentration by LC-MS/MS). The note with it: ICR mice, male, Oral (10 mg/kg), fasted overnight. The procedure:
ICR mice were used as test animals. Plasma concentrations of the test compounds at different time points were measured by LC/MS/MS after intragastrical administration of the reference compound STP-B and the compounds of the present disclosure, and the pharmacokinetic characteristics of the compounds of the present disclosure in mice were studied.
ICR mice, male, 30.8 to 38.0 g, purchased from Vital River Laboratory Animal Technology Co., Ltd.
An appropriate amount of the test compound was weighed, and an appropriate amount of DMA (N,N-dimethylacetamide), 30% Solutol HS15 (30% polyethylene glycol-15 hydroxystearate), and saline were added sequentially, mixed by ultrasonication and vortexing to prepare a 1 mg/mL dosing formulation. The ratio of DMA:30% Solutol HS15:saline was 10:10:80 (v/v/v).
ICR mice in each test compound injection group (9 mice per group) were fasted overnight and then administered intragastrically (PO, compound dose was 10 mg/kg, dosing volume was 10 mL/kg), and fed 4 hours after dosing.
About 0.1 mL of blood was collected from the orbit before dosing and at 0.25 h, 0.5 h, 1 h, 2 h, 4 h, 8 h, 10 h, and 24 h after dosing, and whole blood samples were placed in anticoagulant tubes containing EDTA-K2. After blood sample collection, samples were placed on ice and centrifuged to separate plasma (centrifugation conditions: 1500 g, 10 minutes). The collected plasma was stored at -40 to -20°C before analysis.
The content of test compounds in mouse plasma after intragastrical administration was determined by LC-MS/MS.

Data set [3] deals with human cytidine triphosphate synthase 2 (hCTPS2) (Homo sapiens, UniProt Q9NRF8). In words: Inhibition on hCTPS2 enzyme activity (ADP-Glo Kinase Assay), selectivity hCTPS1 versus hCTPS2. The note with it: for Fold selectivity: Fold selectivity = hCTPS2 IC50/hCTPS1 IC50; for IC50: read-out: hCTPS2 IC50, 40 nM hCTPS2, 120 µM ATP, 160 µM UTP, 60 µM GTP, 100 µM L-Glutamine, 120 minutes. As for the experimental part: The following method was used to determine the degree of inhibition on human cytidine triphosphate synthase 2 (hCTPS2) enzyme activity by the compounds of the present disclosure in vitro. ADP-Glo™ Kinase Assay kit (catalog number V9102) from Promega was used. The kit's manual may be referred for a detailed experimental procedure.
The experimental procedure was briefly described as follows: The reaction was performed in a buffer containing 50 mM 4-hydroxyethylpiperazineethanesulfonic acid (HEPES), 10 mM magnesium chloride, 5 mM potassium chloride, 0.01% Pluronic F127, and 4 mM dithiothreitol in a 384-well plate. First, 100 nL of gradient-diluted compound was transferred to a 384-well reaction plate via a nanoliter acoustic liquid transfer system (manufacturer: Labcyte; catalog number: Echo 655), and 2.5 µL of buffer containing hCTPS2 was added, followed by incubation in a 25°C incubator for 10 minutes. Then 2.5 µL of buffer containing ATP and UTP was added, followed by incubation in a 25°C incubator for 10 minutes. Finally, 5 µL of buffer containing GTP and L-glutamine (L-Gln) was added to initiate the reaction. The final reaction system was: 40 nM hCTPS2, 120 µM ATP, 160 µM UTP, 60 µM GTP, 100 µM L-Glutamine, 1% DMSO, with a total assay volume of 10 µL. The reaction was performed for 120 minutes, then 10 µL of ADP-Glo Reagent was added to terminate the reaction, followed by incubation for 1 hour. Then 20 µL of Kinase Detection Reagent was added, and after 1 hour, the chemiluminescence value was recorded on an Envision multilabel microplate detector (manufacturer: PerkinElmer; catalog number: Envision 2104). The percentage inhibition rates of the compounds at each concentration were calculated by comparing the chemiluminescence intensity ratio with a control group (0.1% DMSO). The IC50 value of the compounds were obtained by nonlinear regression analysis of compound concentration logarithm-inhibition rate using GraphPad Prism 5 software.
The fold selectivity between CTPS1 and CTPS2 was calculated according to the following equation: Fold selectivity = hCTPS2 IC50/hCTPS1 IC50 [formula]
A general note: ADP-Glo turns the ADP formed in a reaction into a luminescent signal.

For data set [4], the system named is Jurkat (Clone E6-1) cells. As to the kind of experiment: Inhibition on Jurkat cell proliferation (CellTiter-Glo cell viability). The note with it: 72 hours culture. The procedure: The following method was used to determine the effect of the compounds of the present disclosure on Jurkat cell proliferation. Jurkat (Clone E6-1) cells were purchased from the Cell Resource Center of Shanghai Institutes for Biological Sciences, Chinese Academy of Sciences, and were cultured in RPMI 1640 medium containing 10% fetal bovine serum, 100 U penicillin, and 100 µg/mL streptomycin. Cell viability was measured using a CellTiter-Glo® Luminescent Cell Viability Assay kit (Promega, catalog number G7573).
The experiment was performed according to the kit's manual, briefly summarized as follows: test compounds were first dissolved in DMSO to prepare 10 mM stock solutions, which were then diluted with medium to prepare test samples. The final concentration range of the compounds was from 10000 nM to 1.52 nM. Cells in the logarithmic growth phase were seeded into a 96-well cell culture plate at a density of 1000 cells per well, and test compounds were added. The cells were cultured in a 37°C CO2 incubator for 72 hours. After culturing, 50 µL of CellTiter-Glo detection reagent was added to each well, the plate was shaken for 5 minutes, and allowed to stand for 10 minutes. The luminescence of each well was then measured using a microplate reader in Luminescence mode. The percentage inhibition at each concentration point was calculated by comparison with the control group (0.1% DMSO). Nonlinear regression analysis of compound concentration logarithm versus inhibition rate was performed using GraphPad Prism 9 software to obtain the IC50 values of the compounds for inhibiting cell proliferation, as shown in Table 1. Table 1 IC50 Data for Inhibition on Jurkat Cell Proliferation by the Compounds of the Present Disclosure
Background: ATP-based viability assays read luminescence as a measure of living cells.

Data set [5] concerns BxPC-3 cells (human primary pancreatic cancer cells). In words: Inhibition on BxPC-3 cell proliferation (CellTiter-Glo cell viability). The note with it: 120 hours culture. The procedure:
(§1) The following method was used to determine the effect of the compounds of the present disclosure on the proliferation of BxPC-3 cells (human primary pancreatic cancer cells). BxPC-3 cells were purchased from the Cell Resource Center of Shanghai Institutes for Biological Sciences, Chinese Academy of Sciences, and were cultured in DMEM medium containing 10% fetal bovine serum, 100 U penicillin, and 100 µg/mL streptomycin. Cell viability was determined using CellTiter-Glo® Luminescent Cell Viability Assay kit (Promega, catalog number G7573).
(§2) The experimental method was performed according to the steps in the kit's manual, briefly described as follows: The test compound was first dissolved in DMSO to prepare a 10 mM stock solution, then diluted with medium to prepare test samples, with a final concentration range of the compound from 10000 nM to 1.52 nM. Cells in logarithmic growth phase were seeded into a 96-well cell culture plate at a density of 1000 cells per well, then the test compounds were added, and the cells were cultured in a 37°C CO2 incubator for 120 hours. After culture was completed, 50 µL of CellTiter-Glo detection reagent was added to each well, the plate was shaken for 5 minutes, then allowed to stand for 10 minutes, and then the luminescence value of each well of the sample was read on a microplate reader using Luminescence mode. The percentage inhibition rates of the compounds at each concentration point were calculated by comparing with the value of a control group (0.1% DMSO). Then nonlinear regression analysis was performed on compound concentration logarithm-inhibition rate in GraphPad Prism 9 software to obtain the IC50 values of the compounds for inhibiting cell proliferation, as shown in Table 4. Table 4 IC50 data for inhibition on BxPC-3 cell proliferation by the compounds of the present disclosure

The test system of data set [6] is MIA PaCa-2 cells (human pancreatic cancer cells). In words: Inhibition of MIA PaCa-2 cell proliferation (CellTiter-Glo cell viability). The note with it: 120 hours culture. As for the experimental part:
as §1, with “MIA PaCa-2” for “BxPC-3”, “(human” for “(human primary”, “serum, 2.5% heat-inactivated horse serum, 1% sodium pyruvate (Gibco, catalog number 11360070),” for “serum,”
as §2, with “5.” for “4.”, “5” for “4”, “of MIA PaCa-2” for “on BxPC-3”

The term IC50 denotes the point on the concentration scale where inhibition reaches its midpoint. Compound `CCOc1cncc(-c2ccc(NC(=O)C3(c4cc(NS(=O)(=O)C5CC5)ccn4)CC4CC4C3)cc2)n1` (centres unmarked) gave an IC50 in data set [1] of 5.6 nM. In data set [2], the “AUC AUC0-1(ng·h/mL)” value was 125552 ng·h/mL, the “Half-life T1/2” value stood at 1.87 h and the “Plasma concentration Cmax” value came out at 27571 ng/mL. Further, in data set [3], the Fold selectivity stood at 1000 and the IC50 came to 6020 nM. Besides, the IC50 in data set [4] is 1.58 nM.
`CCOc1cncc(-c2ccc(NC(=O)C3(c4cc(NS(=O)(=O)C5CC5)ccn4)CC4CC4C3)nc2)n1` (centres unmarked) showed an IC50 in data set [5] of 1.54 nM. In data set [6], this compound came in with an IC50 of 15.7 nM. Further, in data set [2], the “AUC AUC0-1(ng·h/mL)” value is 188312 ng·h/mL, the “Half-life T1/2” value came to 2.29 h and the “Plasma concentration Cmax” value came to 26392 ng/mL. The compound also returned an IC50 in data set [4] of 8.81 nM.
For the compound `CCOc1cncc(-c2ccc(NC(=O)C3(c4nccc(NS(=O)(=O)C5CC5)n4)CC4CC4C3)nc2)n1` (centres unmarked), the IC50 in data set [5] came out at 9.64 nM; in data set [6], 39.7 nM; in data set [4], 2.49 nM. Moreover, the “AUC AUC0-1(ng·h/mL)” value in data set [2] was 138092 ng·h/mL. Further, the “Half-life T1/2” value in data set [2] is 3.32 h. In addition, the “Plasma concentration Cmax” value in data set [2] was determined as 34464 ng/mL.
`CCOc1cncc(-c2ccc(NC(=O)C3(c4nccc(NS(=O)(=O)C5CC5)n4)CC4CC4C3)cc2)n1` (centres unmarked) yielded an IC50 in data set [1] of 5.2 nM. Further, in data set [2], the “AUC AUC0-1(ng·h/mL)” value was 59700 ng·h/mL, the “Half-life T1/2” value was determined as 2.27 h and the “Plasma concentration Cmax” value amounted to 20300 ng/mL. Further, in data set [3], the Fold selectivity was determined as 150 and the IC50 was 766 nM. This compound also registered an IC50 in data set [4] of 14.2 nM.
As for `CCOc1cncc(-c2ccc(NC(=O)C3(c4cc(NS(=O)(=O)C5CC5)ccn4)CC4CC4C3)c(F)c2)n1` (centres unmarked), the IC50 in data set [5] was 5.96 nM. This compound showed an IC50 in data set [6] of 35.5 nM. Further, in data set [2], the “AUC AUC0-1(ng·h/mL)” value was 106895 ng·h/mL, the “Half-life T1/2” value is 1.06 h and the “Plasma concentration Cmax” value is 28222 ng/mL. For the same compound, in data set [4], the IC50 was found to be 7.24 nM.
